In patent US9416348B2, “Hepatocyte-like cells and uses thereof” (priority 2010, dated 2016):

Columns and labels:
Primary hepatocyte = conditions: mouse, 3 h
iHep cells = conditions: mouse, 3 h, 200 μM
Procedure: (§1) To determine Alb secretion, TTFs transduced with three factors were cultured in the medium without phenol red. Culture supernatant was collected 24 h after medium change. The amount of Alb in the supernatant was determined by the mouse albumin ELISA kit (BETHYL LABORATORY) according to the manufacturer's instructions. […] The supernatants were collected for measurement of indicated productions by LC-MS/MS (AGILENT 1200 HPLC and ABI 4000 mass-spectrometer). Freshly isolated hepatocytes were used as a positive control. Total cell protein amount was used to normalize the data.
(§2) Metabolites of these chemicals were measured by liquid chromatography-tandem mass spectrometry (LC/MS/MS) according to each standard curve.

TTF = conditions: mouse, 3 h
Procedure: as §1, §2

For `O=C(O)Cc1ccccc1Nc1c(Cl)cccc1Cl` [Diclofenac, diclofenac], the “4′-OH-Diclotenac” value (Primary hepatocyte; 12.5 μM) was 190.8 ± 22.8 pmol/min/mg protein, the “4′-OH-Diclotenac” value (Primary hepatocyte; 25 μM) was 283.1 ± 23.3 pmol/min/mg protein and the “4′-OH-Diclotenac” value (Primary hepatocyte; 50 μM) was 452.8 ± 47.6 pmol/min/mg protein. The “4′-OH-Diclotenac” value (Primary hepatocyte; 200 μM) was 1484.6 ± 8.0 pmol/min/mg protein, the “4′-OH-Diclotenac” value (iHep cells) was 756.7 ± 63.6 pmol/min/mg protein and the “4′-OH-Diclotenac” value (TTF; 12.5 μM) was 0.0 pmol/min/mg protein. For the same compound, the “4′-OH-Diclotenac” value (TTF; 25 μM) was 2.8 ± 2.4 pmol/min/mg protein, the “4′-OH-Diclotenac” value (TTF; 50 μM) was 32.5 ± 13.6 pmol/min/mg protein and the “4′-OH-Diclotenac” value (TTF; 100 μM) was 119.8 ± 11.0 pmol/min/mg protein.

Like-named read-outs stand apart in the source and are kept apart here.
